Assays:
[1] = target: T1, Adenosine receptor A2b (Homo sapiens) (UniProt P29275); experiment: Displacement of [3H]PSB-603 from recombinant human adenosine receptor A2b expressed in CHO cell membranes at 1 uM
T1 sequence (whole entry): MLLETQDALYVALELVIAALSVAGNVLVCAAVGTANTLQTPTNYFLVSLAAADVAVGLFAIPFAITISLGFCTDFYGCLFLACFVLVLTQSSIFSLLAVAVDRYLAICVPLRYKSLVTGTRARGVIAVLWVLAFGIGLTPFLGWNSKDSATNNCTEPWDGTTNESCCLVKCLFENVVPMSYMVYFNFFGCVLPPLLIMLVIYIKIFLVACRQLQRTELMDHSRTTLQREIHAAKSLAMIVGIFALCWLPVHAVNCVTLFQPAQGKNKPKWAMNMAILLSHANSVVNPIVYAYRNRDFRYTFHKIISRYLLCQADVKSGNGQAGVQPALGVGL
Summary of the method: (§1)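 Membranes came from CHO cells expressing recombinant receptors (human A1, A2A, A2B, A3; rat A2B, A3). Radioligands were [3H]CCPA for A1 and [3H]PSB-11 or [3H]NECA for A3. A single high concentration was screened first, in three experiments for A1/A2A and two for A2B/A3. Full inhibition curves spanning at least 3 log units were run for potent compounds.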

Amino acid sequences for entries named in this document (tags omitted).
UniProt P28647, whole entry: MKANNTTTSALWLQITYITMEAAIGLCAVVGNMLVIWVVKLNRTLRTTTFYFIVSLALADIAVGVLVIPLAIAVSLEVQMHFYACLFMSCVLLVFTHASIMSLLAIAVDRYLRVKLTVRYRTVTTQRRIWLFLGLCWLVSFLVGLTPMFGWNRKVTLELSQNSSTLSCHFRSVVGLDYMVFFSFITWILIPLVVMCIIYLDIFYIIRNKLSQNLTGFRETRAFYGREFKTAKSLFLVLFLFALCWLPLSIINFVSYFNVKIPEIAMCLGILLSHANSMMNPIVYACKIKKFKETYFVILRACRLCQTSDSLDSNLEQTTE

[2] = target: Adenosine receptor A3 (Rattus norvegicus, UniProt P28647); experiment: Displacement of [3H]NECA from recombinant rat adenosine receptor A3 expressed in CHO cell membranes; summary of the method: as §1

inhibition [1] [%]	Ki [2] [nM]	SMILES
11		Cn1c(=O)c2c(nc3n2CCN(CCc2ccc(O)cc2)C3)n(C)c1=O
	> 1000	CCn1c(=O)c2c(nc3n2CCCN3CCc2ccc(O)cc2)n(CC)c1=O
